Target: IDO1 (Homo sapiens, UniProt P14902)
Assay: IDO1 Cellular Assay in HeLa Cells Stimulated with IFNγ
Assay type: cell-based
Settings: HeLa cells stimulated with IFNγ 100 ng/mL, 300 uM L-tryptophan, about 48 hours, fluorescence readout; read-out: HeLa Cell Potency, IC50

Chains of the proteins cited; added tags and fusions are not shown.
UniProt P14902, whole entry: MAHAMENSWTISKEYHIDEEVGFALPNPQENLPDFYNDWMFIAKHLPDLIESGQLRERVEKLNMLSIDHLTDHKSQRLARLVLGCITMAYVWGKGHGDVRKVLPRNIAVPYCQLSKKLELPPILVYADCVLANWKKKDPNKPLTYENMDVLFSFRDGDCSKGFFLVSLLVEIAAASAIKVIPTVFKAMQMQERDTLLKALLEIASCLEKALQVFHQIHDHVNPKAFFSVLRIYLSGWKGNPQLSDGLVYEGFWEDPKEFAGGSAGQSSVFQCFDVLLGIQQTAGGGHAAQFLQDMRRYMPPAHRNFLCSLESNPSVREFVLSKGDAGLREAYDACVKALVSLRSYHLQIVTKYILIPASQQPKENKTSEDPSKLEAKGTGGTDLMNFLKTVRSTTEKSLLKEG

Row | SMILES | IC50 [nM]
1 | Cc1cccnc1O[C@H]1CC[C@@H](CCn2nc(C(=O)N3CCC(NC(=O)OC(C)(C)C)CC3)c3c2C[C@H]2C[C@@H]32)CC1 [Example 89, tert-butyl {1-[(3bR,4aR)-1-(2-{cis-4-[(3-methylpyridin-2-yl)oxy]cyclohexyl}ethyl)-3b,4,4a,5-tetrahydro-1H-cyclopropa[3,4]cyclopenta [1,2-c]pyrazole-3-carbonyl]piperidin-4-yl}carbamate] | 3.37
2 | Cc1cccnc1O[C@H]1CC[C@@H](CCn2nc(C(=O)N3CCC(C)(O)CC3)c3c2C[C@H]2C[C@@H]32)CC1 [Example 92, (4-hydroxy-4-methylpiperidin-1-yl)[(3bR,4aR)-1-(2-{cis-4-[(3-methylpyridin-2-yl)oxy]cyclohexyl}ethyl)-3b,4,4a,5-tetrahydro-1H-cyclopropa[3,4]cyclopenta[1,2-c]pyrazol-3-yl]methanone] | 1.41
3 | CC(=O)NC1CCN(C(=O)c2nn(CC[C@H]3CC[C@@H](Oc4ncccc4C)CC3)c3c2[C@@H]2C[C@@H]2C3)CC1 [Example 93, N-{1-[(3bR,4aR)-1-(2-{cis-4-[(3-methylpyridin-2-yl)oxy]cyclohexyl}ethyl)-3b,4,4a,5-tetrahydro-1H-cyclopropa[3,4]cyclopenta[1,2-c]pyrazole-3-carbonyl]piperidin-4-yl}acetamide] | 1.53
4 | Cc1c(Cl)cccc1N1CCC(O)(CCn2nc(C(=O)N3CC[C@H](O)[C@H](F)C3)c3c2C[C@H]2C[C@@H]32)CC1 [Example 97, ((3bR,4aR)-1-(2-(1-(3-chloro-2-methylphenyl)-4-hydroxypiperidin-4-yl)ethyl)-3b,4,4a,5-tetrahydro-1H-cyclopropa[3,4]cyclopenta[1,2-c]pyrazol-3-yl)((3R,4S)-3-fluoro-4-hydroxypiperidin-1-yl)methanone] | 21.4
5 | CC(=O)NC1CCN(C(=O)c2nn(CCN3CCN(c4cccc(Cl)c4C)CC3)c3c2[C@@H]2C[C@@H]2C3)CC1 [Example 102, N-(1-((3bR,4aR)-1-(2-(4-(3-chloro-2-methylphenyl)piperazin-1-yl)ethyl)-3b,4,4a,5-tetrahydro-1H-cyclopropa[3,4]cyclopenta[1,2-c]pyrazole-3-carbonyl)piperidin-4-yl)acetamide] | 2.06

Further lines, results first:

Row | IC50 [nM] | SMILES
6 | 1.77 | Cc1cccnc1O[C@H]1CC[C@@H](CCn2nc(C(=O)N3CCC(OCCO)CC3)c3c2CCC(F)(F)C3)CC1 [Example 90, [5,5-difluoro-1-(2-{cis-4-[(3-methylpyridin-2-yl)oxy]cyclohexyl}ethyl)-4,5,6,7-tetrahydro-1H-indazol-3-yl][4-(2-hydroxyethoxy)piperidin-1-yl]methanone]
7 | 1.97 | Cc1cccnc1O[C@H]1CC[C@@H](CCn2nc(C(=O)N3CCC(OCCO)CC3)c3c2C[C@H]2C[C@@H]32)CC1 [Example 91, [4-(2-hydroxyethoxy)piperidin-1-yl][(3bR,4aR)-1-(2-{cis-4-[(3-methylpyridin-2-yl)oxy]cyclohexyl}ethyl)-3b,4,4a,5-tetrahydro-1H-cyclopropa[3,4]cyclopenta[1,2-c]pyrazol-3-yl]methanone]
8 | 1.83 | Cc1cccnc1O[C@H]1CC[C@@H](CCn2nc(C(=O)N3CCN(C(=O)CO)CC3)c3c2C[C@H]2C[C@@H]32)CC1 [Example 94, 2-hydroxy-1-(4-((3bR,4aR)-1-(2-((1s,4S)-4-((3-methylpyridin-2-yl)oxy)cyclohexyl)ethyl)-3b,4,4a,5-tetrahydro-1H-cyclopropa[3,4]cyclopenta[1,2-c]pyrazole-3-carbonyl)piperazin-1-yl)ethan-1-one]
9 | 7.89 | Cc1c(Cl)cccc1N1CCC(O)(CCn2nc(C(=O)N3CC[C@@H](O)[C@@H](F)C3)c3c2C[C@H]2C[C@@H]32)CC1 [Example 98, ((3bR,4aR)-1-(2-(1-(3-chloro-2-methylphenyl)-4-hydroxypiperidin-4-yl)ethyl)-3b,4,4a,5-tetrahydro-1H-cyclopropa[3,4]cyclopenta[1,2-c]pyrazol-3-yl)((3 S,4R)-3-fluoro-4-hydroxypiperidin-1-yl)methanone]
10 | 33.8 | Cc1cccc(N2CCN(CCn3nc(C(=O)N4CCC(O)CC4)c4c3C[C@H]3C[C@@H]43)CC2)c1C [Example 99, ((3bR,4aR)-1-(2-(4-(2,3-dimethylphenyl)piperazin-1-yl)ethyl)-3b,4,4a,5-tetrahydro-1H-cyclopropa[3,4]cyclopenta[1,2-c]pyrazol-3-yl)(4-hydroxypiperidin-1-yl)methanone]
11 | 2.32 | CC(=O)NC1CCN(C(=O)c2nn(CCN3CCN(c4cccc(C)c4C)CC3)c3c2[C@@H]2C[C@@H]2C3)CC1 [Example 100, N-(1-((3bR,4aR)-1-(2-(4-(2,3-dimethylphenyl)piperazin-1-yl)ethyl)-3b,4,4a,5-tetrahydro-1H-cyclopropa[3.4]cyclopenta[1,2-c]pyrazole-3-carbonyl)piperidin-4-yl)acetamide]
12 | 41.8 | Cc1c(Cl)cccc1N1CCN(CCn2nc(C(=O)N3CCC(O)CC3)c3c2C[C@H]2C[C@@H]32)CC1 [Example 101, ((3bR,4aR)-1-(2-(4-(3-chloro-2-methylphenyl)piperazin-1-yl)ethyl)-3b,4,4a,5-tetrahydro-1H-cyclopropa[3,4]cyclopenta[1,2-c]pyrazol-3-yl)(4-hydroxypiperidin-1-yl)methanone]

Source: patent US12152019B2, “Arylalkyl pyrazole compounds as indoleamine 2,3-dioxygenase inhibitors” (Merck Sharp & Dohme LLC, priority 2018, dated 2024)
